Test results: patent US20030232756A1, “Ligands for G protein coupled receptor GPR7 and GPR8 and uses thereof” (Euroscreen, S.A., priority 2002, published 2003)

By UniProt entry, the sequences of proteins in these tests, tags left out. Where a name states a change or a piece, a line headed by the entry shows the natural chain unless it says otherwise.
UniProt P48146: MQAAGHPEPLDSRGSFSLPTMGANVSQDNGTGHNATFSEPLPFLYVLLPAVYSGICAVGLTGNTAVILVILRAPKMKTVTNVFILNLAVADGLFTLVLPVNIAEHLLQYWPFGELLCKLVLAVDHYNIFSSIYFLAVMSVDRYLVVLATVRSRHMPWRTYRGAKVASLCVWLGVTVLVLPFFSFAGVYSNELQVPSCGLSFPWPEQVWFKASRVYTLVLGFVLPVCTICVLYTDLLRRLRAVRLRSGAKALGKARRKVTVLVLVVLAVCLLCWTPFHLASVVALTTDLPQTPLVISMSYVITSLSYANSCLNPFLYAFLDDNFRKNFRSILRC

Tests used:
GPR7 [1] = biological target: T1, GPR7 (Homo sapiens, UniProt P48145); assay: cAMP accumulation in CHO-WTA11 cells stably expressing the human GPR7; format: cell-based; set-up: expressed in transfected cells; host or cells: CHO-K1 clone WTA11 (mitochondrial apoaequorin + Galpha16); conditions: comparison in words
T1 sequence (P48145 1-328): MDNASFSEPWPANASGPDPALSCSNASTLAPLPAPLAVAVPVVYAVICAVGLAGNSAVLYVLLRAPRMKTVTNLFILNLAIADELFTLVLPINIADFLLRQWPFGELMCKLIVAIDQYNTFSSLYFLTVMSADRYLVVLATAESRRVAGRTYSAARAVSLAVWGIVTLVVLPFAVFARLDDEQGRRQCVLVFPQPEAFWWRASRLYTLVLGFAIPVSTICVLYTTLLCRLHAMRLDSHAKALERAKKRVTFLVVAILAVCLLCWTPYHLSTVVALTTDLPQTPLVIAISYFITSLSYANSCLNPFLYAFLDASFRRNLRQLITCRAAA
Protocol: L7 and L8 were tested on CHO—WTA11 cells stably expressing the human GPR7 for their ability to inhibit the activity of the adenylate cyclase stimulated with forskolin. EC50 were similar for both ligands (FIG. 7). There was no effect of L7 or L8 in cells coexpressing another receptor and used as negative control.

GPR7 [2] = biological target: T1, GPR7; assay: Aequorin-based functional assay, WTA11 cells expressing GPR7; format: cell-based; set-up: expressed in transfected cells; host or cells: CHO-K1 clone WTA11 (mitochondrial apoaequorin + Galpha16); conditions: mean±S.E.M., read-out: EC50, agonist of GPR7, aequorin-based functional assay
Protocol: CHO—K1 cells (ATCC CRL-9618 (Bethesda, Md., USA)) were previously transfected with a plasmid encoding mitochondrial apoaequorin and Gα16. A clone obtained by limit dilution, called WTA11, was grown in Nutrient Mixture HAM's F12 medium supplemented with 10% fetal calf serum, 250 μg/ml zeocin, 100 units/ml penicillin and 100 μg/ml streptomycin. A bicistronic plasmid encoding the human GPR7 was transfected into WTA11 CHO—K1 cells, using Fugene 6 (Roche Diagnostics, Mannheim, Germany). Individual clones were selected two days after transfection with 400 μg/ml neomycin and GPR7-positive clones were confirmed by northern blotting, RT-PCR and sequencing.
Functional responses were analysed by recording the luminescence of aequorin following the addition of the ligand. In brief, cells were collected from plates with PBS containing 5 mM EDTA, pelleted, and resuspended at 10^7 cells/ml in DMEM-F12 medium and incubated with 5 μM coelenterainze H (Molecular Porbes) for 4 h at room temperature. Cells were then washed in DMEM-F12 medium and resuspended at a concentration of 2×10^6 cells/ml. Cells where then mixed with the ligand, and the light emission was recorded over 60 s using a Microlumat™ luminometer (Perkin Elmer). Results are expressed as relative light units (RLU) (FIG. 5).
(§1) In the experiments described in this section, the aequorin assay measured functional responses by recording the luminescence of aequorin in GPR7- and GPR8-expressing cells following addition of (potential) agonists, as previously described (Kotani, M. et al.). In brief, cells were collected from plates with PBS containing 5 mM EDTA, pelleted, resuspended at 5×10^6 cells/ml in DMEM-F12 medium containing 0.1% BSA, incubated with 5 μM coelenterazine H (Molecular Probes, Eugene, Oreg.) for 4 h at room temperature, and diluted in DMEM-F12 medium at a concentration of 5×10^5 cells/ml. Cells where then mixed with the ligands, and the light emission was recorded over 30 s using a Microlumat™ luminometer (Perkin Elmer, Norwalk, Conn.).

GPR8 [3] = biological target: T2, GPR8 (Homo sapiens, UniProt P48146); assay: Aequorin-based functional assay, WTA11 cells expressing GPR8; format: cell-based; set-up: expressed in transfected cells; host or cells: CHO-K1 clone WTA11 (apoaequorin + Galpha16); conditions: mean±S.E.M., read-out: EC50, agonist of GPR8, aequorin-based functional assay
Protocol: as §1

GPR7 [4] = biological target: T1, GPR7; assay: cAMP accumulation in CHO-K1 cells expressing GPR7, forskolin-stimulated; format: cell-based; set-up: expressed in transfected cells; host or cells: CHO-K1; conditions: in the presence of forskolin 5 μM; mean±S.E.M.; read-out: IC50, inhibition of the level of cAMP, CHO-K1-GPR7
Protocol: (§2) In the experiments in this section, the cyclic AMP assays comprised CHO—K1 cell lines stably expressing GPR7 or GPR8, said cells cultured in Petri dishes at 37° C. in Ham's F-12 medium, containing or not 100 ng/ml pertussis toxin (PTX). […] Cells were further preincubated for 15 min in 1 mM KRH-IBMX buffer and incubated with various concentrations of agonists for 20 min at 37° C., with or without 5 μM forskolin. Incubations were terminated by the addition of lysis buffer (CS1000 kit, Applied Biosystem, USA). The cell lysate was homogenized in the presence of cAMP-AP conjugate and an anti-cAMP-antibody, and cAMP content was quantified by ELISA (CS1000 kit, Applied Biosystem, USA).

GPR8 [5] = biological target: T2, GPR8; assay: Competition binding assay on membranes of CHO-K1 cells expressing GPR8; set-up: expressed in transfected cells; host or cells: CHO-K1 clone WTA11 (apoaequorin + Galpha16); conditions: [125I]-L8 as tracer
Protocol: (§3) In the experiments described in this section, iodinated L8 peptide was obtained using the chloramine T labeling method (Zentech, Belgium). Competition binding assays were performed as described (Kotani, M. et al.) on crude membrane fractions prepared from CHO—K1 cell lines expressing GPR7 or GPR8. Briefly, 1 to 10 μg of membrane proteins were incubated in binding buffer (50 mM HEPES pH 7.4, 5 mM MgCl2, 1 mM CaCl2, 0.5% protease-free BSA) containing 0.1 μM [125I]-L7 or [125I]-L8 radioligand for 90 min at 27° C. Bound tracer was separated by filtration through GF/B filters (Millipore) presoaked in 0.5% polyethylenimine. Filters were then counted by gamma scintillation counting. Results were normalized for total binding in the absence of competitor (100%) and non-specific binding (0%) in the presence of a 100-fold excess of unlabelled ligand, and were analyzed by nonlinear regression, using a single-site competition model (Graph-Pad Prism Software).

GPR7 [6] = biological target: T1, GPR7; assay: Competition binding assay on membranes of CHO-K1 cells expressing GPR7; set-up: expressed in transfected cells; host or cells: CHO-K1 clone WTA11 (mitochondrial apoaequorin + Galpha16); conditions: [125I]-L7 as tracer
Protocol: as §3

GPR8 [7] = biological target: T2, GPR8; assay: cAMP accumulation in CHO-K1 cells expressing GPR8, forskolin-stimulated; format: cell-based; set-up: expressed in transfected cells; host or cells: CHO-K1; conditions: in the presence of forskolin 5 μM; mean±S.E.M.; read-out: IC50, inhibition of the level of cAMP, CHO-K1-GPR8
Protocol: as §2

GPR7 [8] = biological target: T1, GPR7; assay: Phosphoinositide (IP) accumulation in Cos-7 cells transfected with GPR7 and Gqi5 chimaeric G-protein; format: cell-based; set-up: expressed in transfected cells; host or cells: CHO-K1; conditions: Cos-7 cells with GPR7 and Gqi5; data not shown
Protocol: In the experiments in this section, the phosphoinositide accumulation assays comprised Cos-7 cells expressing GPR7 or GPR8, said cells labeled for 12 hours with 3 μCi/ml [3H] inositol in inositol-free DMEM containing 5% FBS. Cells were washed two times with Krebs-Ringer Hepes (KRH) buffer (10 mM Hepes pH 7.4, 146 mM NaCl, 4.2 mM KCl, 0.5 mM MgCl2, 1 mM CaCl2, 55 mM glucose) prior to the incubation with agonists at 37° C. for 30 min in KRH buffer containing 9.4 mM LiCl. The incubation was stopped by replacing the incubation medium with 1 ml of an ice-cold 5% perchloric acid solution. The medium was further neutralized with a 75 mM Hepes, 1.5 M KOH solution. The total inositol phosphate (IP) content was then extracted, and purified on Dowex columns as described (26). Total radioactivity remaining in the membrane fraction was counted after solubilization in 10% Triton, 0.1 N NaOH and used as standard for each well. Results were expressed as the radioactivity associated to IP over the total radioactivity present in membranes.

EC50, inhibition of adenylate cyclase stimulated with forskolin (GPR7 [1]) | EC50 (GPR7 [2]) | EC50 (GPR8 [3]) | IC50 (GPR7 [4]) | IC50 (GPR8 [5]) | IC50 (GPR7 [6]) | IC50 (GPR8 [7]) | EC50 (GPR7 [8]) | SMILES
similar | – | – | – | – | – | – | – | CSCC[C@H](NC(=O)[C@H](CC(C)C)NC(=O)[C@H](CC(C)C)NC(=O)CNC(=O)[C@H](C)NC(=O)[C@H](C)NC(=O)[C@H](CCCNC(=N)N)NC(=O)CNC(=O)[C@@H](NC(=O)[C@@H](NC(=O)[C@H](Cc1c[nH]cn1)NC(=O)[C@H](Cc1ccc(O)cc1)NC(=O)[C@H](CCCNC(=N)N)NC(=O)[C@@H]1CCCN1C(=O)[C@H](CO)NC(=O)[C@H](C)NC(=O)[C@@H](NC(=O)[C@H](Cc1c[nH]cn1)NC(=O)[C@H](CCCCN)NC(=O)[C@H](Cc1ccc(O)cc1)NC(=O)[C@@H](N)Cc1c[nH]c2ccccc12)C(C)C)[C@@H](C)O)C(C)C)C(=O)NCC(=O)N[C@@H](CC(C)C)C(=O)O [L8, reference compound]
– | 241 ± 10 nM | 77 ± 7 nM | 1.99 ± 0.57 nM | 0.43 ± 0.15 nM | 0.96 ± 0.16 nM | 9.8 ± 2 nM | – | CSCC[C@H](NC(=O)[C@H](CC(C)C)NC(=O)[C@H](CC(C)C)NC(=O)CNC(=O)[C@H](C)NC(=O)[C@H](C)NC(=O)[C@H](CCCNC(=N)N)NC(=O)CNC(=O)[C@@H](NC(=O)[C@@H](NC(=O)[C@H](Cc1cnc[nH]1)NC(=O)[C@H](Cc1ccc(O)cc1)NC(=O)[C@H](CCCNC(=N)N)NC(=O)[C@@H]1CCCN1C(=O)[C@H](CO)NC(=O)[C@H](C)NC(=O)[C@@H](NC(=O)[C@H](Cc1cnc[nH]1)NC(=O)[C@H](CCCCN)NC(=O)[C@H](Cc1ccc(O)cc1)NC(=O)[C@@H](N)Cc1c[nH]c2ccccc12)C(C)C)[C@@H](C)O)C(C)C)C(=O)NCC(=O)N[C@@H](CC(C)C)C(=O)N[C@@H](CCCNC(=N)N)C(=O)N[C@@H](CCCNC(=N)N)C(=O)N[C@@H](CO)C(=O)N1CCC[C@H]1C(=O)N[C@@H](Cc1ccc(O)cc1)C(=O)N[C@@H](CC(C)C)C(=O)N[C@@H](Cc1c[nH]c2ccccc12)C(=O)O [L8C]
– | 50 ± 11 nM | 91 ± 17 nM | 0.14 ± 0.04 nM | 0.98 ± 0.28 nM | 0.33 ± 0.05 nM | 12.5 ± 2.3 nM | – | CC(C)C[C@H](NC(=O)CNC(=O)[C@H](C)NC(=O)[C@H](C)NC(=O)[C@H](CCCNC(=N)N)NC(=O)CNC(=O)[C@@H](NC(=O)[C@H](CO)NC(=O)[C@H](Cc1ccc(O)cc1)NC(=O)[C@H](CO)NC(=O)[C@H](CO)NC(=O)[C@H](Cc1c[nH]cn1)NC(=O)CNC(=O)[C@H](C)NC(=O)[C@H](C)NC(=O)[C@@H]1CCCN1C(=O)[C@H](CCCCN)NC(=O)[C@H](Cc1ccc(O)cc1)NC(=O)[C@@H](N)Cc1c[nH]c2ccccc12)C(C)C)C(=O)N[C@@H](CC(C)C)C(=O)N[C@@H](CO)C(=O)NCC(=O)N[C@@H](CC(C)C)C(=O)N[C@@H](CCCNC(=N)N)C(=O)N[C@@H](CCCNC(=N)N)C(=O)N[C@@H](CO)C(=O)N1CCC[C@H]1C(=O)N[C@@H](Cc1ccc(O)cc1)C(=O)N[C@@H](C)C(=O)O [L7C]
similar | 126 ± 21 nM | 121 ± 16 nM | 0.36 ± 0.05 nM | 4.01 ± 0.13 nM | 1.95 ± 0.27 nM | 20.9 ± 2.5 nM | 8.2 nM | CC(C)C[C@H](NC(=O)CNC(=O)[C@H](CO)NC(=O)[C@H](CC(C)C)NC(=O)[C@H](CC(C)C)NC(=O)CNC(=O)[C@H](C)NC(=O)[C@H](C)NC(=O)[C@H](CCCNC(=N)N)NC(=O)CNC(=O)[C@@H](NC(=O)[C@H](CO)NC(=O)[C@H](Cc1ccc(O)cc1)NC(=O)[C@H](CO)NC(=O)[C@H](CO)NC(=O)[C@H](Cc1c[nH]cn1)NC(=O)CNC(=O)[C@H](C)NC(=O)[C@H](C)NC(=O)[C@@H]1CCCN1C(=O)[C@H](CCCCN)NC(=O)[C@H](Cc1ccc(O)cc1)NC(=O)[C@@H](N)Cc1c[nH]c2ccccc12)C(C)C)C(=O)O [L7]
